# Assays:
# APOE∗3-Leiden.CETP mice [1] = experiment: First efficacy study: body weight, food intake, plasma AST and ALT; assay type: in vivo, mouse; set-up: unit not given here
# Description: (§1) Animal experiments were approved by the governmental central committee on animal experiments (AVD5010020172064) and TNO’s animal welfare body (TNO-471 and TNO-482). Female APOE∗3-Leiden.CETP transgenic mice (11–16 weeks of age) were bred at the animal facility of TNO-InnoSer (Leiden, The Netherlands). Female animals were used in this study as they are more responsive to dietary cholesterol and fat than males and therefore typically develop atherosclerosis more rapidly than male APOE∗3-Leiden and APOE∗3-Leiden.CETP mice on cholesterol-containing diets ([33], [34]). Although measurements of atherosclerosis were not included as part of the present study, females were used with the prospect in mind that atherosclerosis studies will follow. The mice were housed under standard conditions that included 12 h light-dark cycles and access to a WTD and sterilized tap water ad libitum. Body weight, food intake, and clinical signs of behavior were monitored throughout the studies. […]
# In the first efficacy study, mice were divided into three groups of eight to determine whether there was a dose-dependent cholesterol-lowering effect with NYX-PCSK9i treatment. […] Throughout the in-life phase of the study, body weight and food intake (per cage) were measured at regular predetermined intervals while blood samples were collected every 7 days. […] Throughout the study, plasma cholesterol, triglycerides, HDL-C, lipoprotein profiles, PCSK9 expression levels, aspartate transaminase levels (AST), and alanine transaminase levels (ALT) were measured as described below.
# (§2) In both studies, blood samples were collected at weekly intervals via tail vein sampling after fasting the mice for 4 h. […] Total plasma cholesterol levels were determined using a Cholesterol CHOD-PAP kit according to the manufacturer’s instructions. Plasma HDL-C levels were determined by first precipitating apoB-containing lipids using PEG 6000/glycine and then utilizing the Cholesterol CHOD-PAP kit ([35]). Non-HDL-C levels were determined by subtracting HDL-C levels from total cholesterol levels ([32]). […]
# APOE∗3-Leiden.CETP mice [2] = experiment: Second efficacy study: body weight, food intake, plasma ALT and AST; assay type: in vivo, mouse; set-up: unit not given here; conditions: NYX-PCSK9i 50 mg/kg BID PO, atorvastatin 4.9 mg/kg/day
# Description: as §1, with “Although measurements of atherosclerosis were not included as part of the present study, females were used with the prospect in mind that atherosclerosis studies will follow. The mice were housed under standard conditions that included 12 h light-dark cycles and access to a WTD and sterilized tap water ad libitum.” left out
# as §2, with “([32]). Group-pooled lipoprotein profiles were determined by FPLC analysis using an AKTApurifier 10 FPLC system (GE Healthcare, Chicago, IL).” for “([32]).”
smiles,measurement,setting,value
Cc1cn(-c2cc(CN3CCC[C@H](N)C3)cc(NC(=O)c3cc(-c4ccccc4)ccn3)c2)cn1 [NYX-PCSK9i],Body weight (mean ± SD),"APOE∗3-Leiden.CETP mice [1]; 30 mg/kg BID PO, day 14",22.3 ± 1.7
same,Body weight (mean ± SD),"APOE∗3-Leiden.CETP mice [1]; 30 mg/kg BID PO, day 21",22.2 ± 1.2
same,Body weight (mean ± SD),"APOE∗3-Leiden.CETP mice [1]; 50 mg/kg BID PO, day 0 (baseline)",22.2 ± 1.6
same,Body weight (mean ± SD),APOE∗3-Leiden.CETP mice [2]; day 7,22.8 ± 2.0
same,Body weight (mean ± SD),APOE∗3-Leiden.CETP mice [2]; day 35,22.1 ± 1.9

# From PMC9646673, “A Novel, Orally Bioavailable, Small-Molecule Inhibitor of PCSK9 With Significant Cholesterol-Lowering Properties In Vivo” (Journal of Lipid Research, 2022)
